According to publication PMC10354055, “An optimized Nurr1 agonist provides disease-modifying effects in Parkinson’s disease models” (Nature Communications, 2023):
Several values for one entry are separate records, joined by “and”; a condition that tells them apart may be missing. Identical values can stand only once.

Test system: MPTP-induced male mice
Assay: Rotarod, sub-chronic MPTP-induced PD model mice
Format: in vivo, mouse
Conditions: Figure 4b, individual animal values
Description: MPTP (Sigma-Aldrich) was intraperitoneally (i.p.) injected (30 mg/kg) for 5 days (Day 1-5). […] To test dyskinetic involuntary behavior, an L-DOPA injected group was included, which received 50 mg/kg of L-DOPA and 15 mg/kg of benserazide (Sigma-Aldrich) (i.p.) for 16 days (Day 1–16). All compounds were administered 6 h post-MPTP injection to avoid any effect of compounds on the MPTP metabolism in the brain. Motor and non-motor related behavior tests were performed on the following days as described in Fig. 4a in an assessor- and observer-blinded fashion. Pre-training and baseline setup for motor-related behaviors were performed 3 days prior to the injections. Mice were sacrificed and subjected to immunohistochemistry. Mice were housed at the Animal Care Facilities of McLean Hospital under a 12-h light/12-h dark cycle, ambient temperature and humidity. Animals were handled in accordance with McLean Hospital’s Institutional Animal Care and Use Committee (Protocol #: 2015N000002) and followed National Institutes of Health guidelines.
Mice were pre-trained on an automated 5-lane rotarod unit (10 rpm, 3 min) for 2 days and the baseline was measured (10 rpm, 90 sec) before the rotarod test (3 days before the MPTP injection or the first rotarod test at week 2). […] Time on the rotating rod was measured automatically by placing a trip switch under the floor beneath the rotating drum.

## CCN(CC)CCCC(C)Nc1ccnc2cc(Cl)ccc12 (stereo not shown) [CQ, chloroquine]
  Latency to fall: 112.77 s and 112.27 s
